One compound from ChEMBL document CHEMBL1123005, “1-Azacycloalkyl-1,4-benzodiazepin-2-ones with antianxiety-antidepressant actions” (J Med Chem, 1985) can be followed below.

Sequences of proteins named here, by UniProt entry; tags and fusion partners are left off. A change or cut given only in a name is not applied to a line headed by its entry.
UniProt O09028: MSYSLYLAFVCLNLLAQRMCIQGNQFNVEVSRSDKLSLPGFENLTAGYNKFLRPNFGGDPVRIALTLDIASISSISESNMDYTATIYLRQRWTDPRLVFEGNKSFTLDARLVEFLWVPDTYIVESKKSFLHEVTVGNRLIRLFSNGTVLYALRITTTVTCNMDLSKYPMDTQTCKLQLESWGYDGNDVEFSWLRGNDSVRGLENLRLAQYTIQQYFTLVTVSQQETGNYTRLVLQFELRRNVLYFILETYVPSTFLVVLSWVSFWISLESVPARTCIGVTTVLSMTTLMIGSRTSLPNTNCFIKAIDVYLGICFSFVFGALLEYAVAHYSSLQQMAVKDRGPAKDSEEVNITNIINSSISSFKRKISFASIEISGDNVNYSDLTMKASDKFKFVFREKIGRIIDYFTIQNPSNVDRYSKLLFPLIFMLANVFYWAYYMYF
UniProt P15431: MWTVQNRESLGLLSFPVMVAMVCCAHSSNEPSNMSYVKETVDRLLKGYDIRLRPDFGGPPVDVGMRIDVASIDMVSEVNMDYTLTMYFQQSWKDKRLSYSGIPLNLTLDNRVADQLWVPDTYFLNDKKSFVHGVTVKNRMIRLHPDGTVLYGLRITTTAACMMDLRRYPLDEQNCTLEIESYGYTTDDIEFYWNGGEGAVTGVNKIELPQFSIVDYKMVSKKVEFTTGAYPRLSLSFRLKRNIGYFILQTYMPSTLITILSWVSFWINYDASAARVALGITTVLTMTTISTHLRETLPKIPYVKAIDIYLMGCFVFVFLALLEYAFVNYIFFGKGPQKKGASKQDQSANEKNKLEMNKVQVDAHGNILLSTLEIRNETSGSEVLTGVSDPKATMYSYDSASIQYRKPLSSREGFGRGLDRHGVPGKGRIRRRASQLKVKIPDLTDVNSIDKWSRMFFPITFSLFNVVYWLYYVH
UniProt P18506: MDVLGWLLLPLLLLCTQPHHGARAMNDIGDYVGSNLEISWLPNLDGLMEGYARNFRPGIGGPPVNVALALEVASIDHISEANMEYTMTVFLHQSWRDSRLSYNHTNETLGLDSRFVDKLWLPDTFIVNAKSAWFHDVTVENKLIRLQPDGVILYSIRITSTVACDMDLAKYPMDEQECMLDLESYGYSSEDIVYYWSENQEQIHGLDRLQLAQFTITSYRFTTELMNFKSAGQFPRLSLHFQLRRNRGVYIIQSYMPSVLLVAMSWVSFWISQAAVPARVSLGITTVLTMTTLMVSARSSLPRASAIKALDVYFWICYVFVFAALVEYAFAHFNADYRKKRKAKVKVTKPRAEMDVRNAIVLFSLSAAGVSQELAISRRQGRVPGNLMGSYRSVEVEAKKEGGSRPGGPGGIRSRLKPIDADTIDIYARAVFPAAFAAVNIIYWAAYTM
UniProt P18508: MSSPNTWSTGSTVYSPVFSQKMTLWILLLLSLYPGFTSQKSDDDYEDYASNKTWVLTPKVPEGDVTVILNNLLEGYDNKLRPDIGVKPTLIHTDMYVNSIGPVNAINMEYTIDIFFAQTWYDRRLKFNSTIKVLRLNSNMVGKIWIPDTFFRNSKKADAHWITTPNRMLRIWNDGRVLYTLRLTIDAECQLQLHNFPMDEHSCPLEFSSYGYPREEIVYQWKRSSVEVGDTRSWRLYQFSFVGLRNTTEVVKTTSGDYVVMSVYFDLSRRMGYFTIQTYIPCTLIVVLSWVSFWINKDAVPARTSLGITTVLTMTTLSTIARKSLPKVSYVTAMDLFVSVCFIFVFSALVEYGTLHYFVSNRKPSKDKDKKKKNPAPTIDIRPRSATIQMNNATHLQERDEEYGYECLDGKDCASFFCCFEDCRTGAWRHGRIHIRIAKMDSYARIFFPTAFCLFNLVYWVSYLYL
UniProt P19969: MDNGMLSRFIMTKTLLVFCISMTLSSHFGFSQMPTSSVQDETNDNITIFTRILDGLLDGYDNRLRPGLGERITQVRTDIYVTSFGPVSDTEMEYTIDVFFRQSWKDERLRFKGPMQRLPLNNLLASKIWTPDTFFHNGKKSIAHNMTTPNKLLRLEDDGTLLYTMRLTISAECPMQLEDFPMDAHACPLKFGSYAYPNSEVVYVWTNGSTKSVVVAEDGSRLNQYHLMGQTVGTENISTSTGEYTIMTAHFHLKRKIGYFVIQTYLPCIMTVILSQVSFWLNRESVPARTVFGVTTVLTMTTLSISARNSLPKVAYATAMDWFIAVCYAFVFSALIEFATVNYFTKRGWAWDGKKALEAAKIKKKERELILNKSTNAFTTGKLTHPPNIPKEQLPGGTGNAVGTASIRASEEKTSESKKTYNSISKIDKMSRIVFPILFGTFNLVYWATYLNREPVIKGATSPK
UniProt P20236: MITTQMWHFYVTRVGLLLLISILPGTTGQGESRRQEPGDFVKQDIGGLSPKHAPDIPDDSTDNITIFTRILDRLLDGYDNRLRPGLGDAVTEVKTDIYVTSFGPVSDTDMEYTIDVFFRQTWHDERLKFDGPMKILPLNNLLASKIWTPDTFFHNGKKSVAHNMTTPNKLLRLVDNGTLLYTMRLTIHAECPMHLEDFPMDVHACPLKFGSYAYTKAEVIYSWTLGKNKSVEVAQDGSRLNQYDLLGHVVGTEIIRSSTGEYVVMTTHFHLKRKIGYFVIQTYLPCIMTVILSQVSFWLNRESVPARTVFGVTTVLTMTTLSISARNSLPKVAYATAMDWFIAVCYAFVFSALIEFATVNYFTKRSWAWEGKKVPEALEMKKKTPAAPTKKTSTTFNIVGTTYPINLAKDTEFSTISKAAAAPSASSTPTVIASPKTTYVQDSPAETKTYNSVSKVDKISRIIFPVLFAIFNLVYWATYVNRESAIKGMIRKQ
UniProt P23574: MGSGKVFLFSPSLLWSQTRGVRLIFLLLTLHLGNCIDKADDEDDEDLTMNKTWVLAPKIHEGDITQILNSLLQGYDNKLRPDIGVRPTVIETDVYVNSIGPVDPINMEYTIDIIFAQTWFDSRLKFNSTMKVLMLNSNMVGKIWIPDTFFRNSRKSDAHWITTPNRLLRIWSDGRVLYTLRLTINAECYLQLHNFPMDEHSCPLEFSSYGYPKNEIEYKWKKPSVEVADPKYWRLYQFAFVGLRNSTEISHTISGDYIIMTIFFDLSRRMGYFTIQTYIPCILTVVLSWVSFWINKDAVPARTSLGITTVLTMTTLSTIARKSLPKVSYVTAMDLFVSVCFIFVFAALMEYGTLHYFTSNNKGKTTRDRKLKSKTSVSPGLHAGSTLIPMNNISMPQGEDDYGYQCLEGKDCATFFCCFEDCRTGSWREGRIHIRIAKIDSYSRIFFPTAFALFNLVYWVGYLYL
UniProt P23576: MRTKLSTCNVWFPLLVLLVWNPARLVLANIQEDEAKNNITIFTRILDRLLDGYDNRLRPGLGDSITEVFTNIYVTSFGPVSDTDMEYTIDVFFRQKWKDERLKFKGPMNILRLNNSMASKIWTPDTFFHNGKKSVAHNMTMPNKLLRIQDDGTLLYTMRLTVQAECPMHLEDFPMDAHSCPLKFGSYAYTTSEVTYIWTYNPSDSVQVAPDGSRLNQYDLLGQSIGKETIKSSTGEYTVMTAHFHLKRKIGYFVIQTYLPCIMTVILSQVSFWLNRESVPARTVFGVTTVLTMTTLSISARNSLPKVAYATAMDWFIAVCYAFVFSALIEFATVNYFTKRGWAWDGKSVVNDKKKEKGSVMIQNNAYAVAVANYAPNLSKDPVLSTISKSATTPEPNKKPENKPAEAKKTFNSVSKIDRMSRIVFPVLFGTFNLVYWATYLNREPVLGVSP
UniProt P28471: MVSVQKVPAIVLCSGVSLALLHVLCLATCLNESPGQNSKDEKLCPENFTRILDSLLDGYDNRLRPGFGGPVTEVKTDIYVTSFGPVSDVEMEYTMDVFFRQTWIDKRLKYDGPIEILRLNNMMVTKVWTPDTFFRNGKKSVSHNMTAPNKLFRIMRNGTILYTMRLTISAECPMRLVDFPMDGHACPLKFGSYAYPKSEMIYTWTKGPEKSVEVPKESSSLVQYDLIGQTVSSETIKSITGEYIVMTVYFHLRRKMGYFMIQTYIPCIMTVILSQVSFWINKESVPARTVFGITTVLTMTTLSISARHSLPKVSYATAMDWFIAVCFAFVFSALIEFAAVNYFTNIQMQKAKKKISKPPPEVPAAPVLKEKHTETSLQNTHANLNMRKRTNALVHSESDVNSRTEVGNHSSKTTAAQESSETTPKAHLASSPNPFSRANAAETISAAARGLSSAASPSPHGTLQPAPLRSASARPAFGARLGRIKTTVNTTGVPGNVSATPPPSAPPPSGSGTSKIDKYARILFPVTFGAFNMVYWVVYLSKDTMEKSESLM
UniProt P28473: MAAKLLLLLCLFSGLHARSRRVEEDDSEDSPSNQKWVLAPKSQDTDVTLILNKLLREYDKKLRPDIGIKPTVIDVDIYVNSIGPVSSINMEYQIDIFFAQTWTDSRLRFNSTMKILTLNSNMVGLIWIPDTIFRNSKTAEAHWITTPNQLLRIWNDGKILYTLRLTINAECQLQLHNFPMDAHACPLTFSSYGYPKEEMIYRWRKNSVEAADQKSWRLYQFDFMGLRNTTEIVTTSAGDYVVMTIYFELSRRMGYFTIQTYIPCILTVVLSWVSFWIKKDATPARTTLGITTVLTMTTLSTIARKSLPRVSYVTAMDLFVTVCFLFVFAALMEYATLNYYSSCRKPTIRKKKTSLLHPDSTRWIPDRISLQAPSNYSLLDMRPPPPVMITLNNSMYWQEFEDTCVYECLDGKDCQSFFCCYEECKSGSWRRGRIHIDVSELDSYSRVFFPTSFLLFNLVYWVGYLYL
UniProt P62813: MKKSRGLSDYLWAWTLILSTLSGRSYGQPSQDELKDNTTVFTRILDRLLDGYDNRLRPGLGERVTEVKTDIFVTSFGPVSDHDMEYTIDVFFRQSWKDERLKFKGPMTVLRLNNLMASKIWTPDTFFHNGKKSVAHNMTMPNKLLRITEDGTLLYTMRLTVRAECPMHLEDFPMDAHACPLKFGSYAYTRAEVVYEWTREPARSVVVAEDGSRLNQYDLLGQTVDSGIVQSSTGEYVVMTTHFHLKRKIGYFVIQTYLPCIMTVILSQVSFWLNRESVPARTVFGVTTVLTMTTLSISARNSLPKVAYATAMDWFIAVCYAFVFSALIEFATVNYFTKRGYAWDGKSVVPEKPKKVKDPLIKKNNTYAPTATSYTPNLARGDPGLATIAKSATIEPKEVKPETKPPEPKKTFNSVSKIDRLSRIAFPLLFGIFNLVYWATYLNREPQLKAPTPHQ
UniProt P63079: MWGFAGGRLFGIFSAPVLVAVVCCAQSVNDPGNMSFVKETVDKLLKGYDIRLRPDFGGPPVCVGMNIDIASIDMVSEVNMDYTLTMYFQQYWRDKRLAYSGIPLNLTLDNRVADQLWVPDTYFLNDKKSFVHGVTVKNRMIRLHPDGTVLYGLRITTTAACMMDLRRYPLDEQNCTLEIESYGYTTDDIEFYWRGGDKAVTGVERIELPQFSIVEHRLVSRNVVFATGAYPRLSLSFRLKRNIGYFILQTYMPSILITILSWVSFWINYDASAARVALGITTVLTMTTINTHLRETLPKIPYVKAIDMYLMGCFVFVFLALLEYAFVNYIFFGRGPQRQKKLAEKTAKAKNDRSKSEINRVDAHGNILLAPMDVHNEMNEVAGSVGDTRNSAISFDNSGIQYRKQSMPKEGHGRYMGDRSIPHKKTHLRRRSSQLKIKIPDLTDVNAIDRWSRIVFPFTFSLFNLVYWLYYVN
UniProt Q9ES14: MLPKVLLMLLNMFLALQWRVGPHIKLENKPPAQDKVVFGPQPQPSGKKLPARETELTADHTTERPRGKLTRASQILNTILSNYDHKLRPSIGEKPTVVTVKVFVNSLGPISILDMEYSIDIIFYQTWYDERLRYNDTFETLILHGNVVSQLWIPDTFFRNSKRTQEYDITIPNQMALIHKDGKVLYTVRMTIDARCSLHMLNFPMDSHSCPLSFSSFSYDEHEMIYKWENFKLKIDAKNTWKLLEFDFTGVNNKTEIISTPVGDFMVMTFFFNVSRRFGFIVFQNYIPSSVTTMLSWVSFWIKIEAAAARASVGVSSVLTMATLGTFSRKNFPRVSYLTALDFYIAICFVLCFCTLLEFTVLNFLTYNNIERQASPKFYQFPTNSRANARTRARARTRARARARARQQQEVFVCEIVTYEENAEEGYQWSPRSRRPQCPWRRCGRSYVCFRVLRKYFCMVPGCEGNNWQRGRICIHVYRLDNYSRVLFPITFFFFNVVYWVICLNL

For the test, the target named is GABA-A receptor; anion channel (Rattus norvegicus) (UniProt O09028+P15431+P18506+P18508+P19969+P20236+P23574+P23576+P28471+P28473+P30191+P62813+P63079+P63138+Q91ZM7+Q9ES14). Kind of test: Binding constant was determined by displacing potential to [3H]-diazepam binding in cerebral cortex homogenates of rat. The format is tissue-based. The method in brief: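 Wistar rat cerebral cortex homogenate incubated with compound and 2 nM [3H]diazepam at 0 °C for 60 min. Bound label trapped on glass filters and counted by scintillation. Ki = IC50/(1 + L/Kd).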

As for `CNC1=Nc2ccc(Cl)cc2C(c2ccccc2)=[N+]([O-])C1` [CHLORDIAZEPOXIDE], the K2 worked out at 0.202 µM.
